Assay [1] concerns the target cat FcRn (complex of cat FCGRT extracellular region with C-terminal His tag and cat β2m) (cat) (UniProt Q5MGS7). Kind of assay: SPR (Biacore X100), antibody captured on Protein L chip, cat FcRn as analyte, pH 6.0. In general terms: Surface plasmon resonance follows binding to a sensor surface in real time, without labels.
Assay [2] shares this target. Kind of assay: SPR (Biacore X100), antibody captured on Protein L chip, cat FcRn as analyte, pH 6.0 (repeats Table 3).
Assay [3] shares this target. Briefly: SPR (Biacore X100), pH 6.0, fold against wild-type Fc.
The target is the same in assay [4]. Kind of assay: SPR (Biacore X100), ratio of KD values at pH 6.0, reference wild-type Fc.
The target is the same in assay [5]. Briefly: SPR (Biacore X100), antibody captured on Protein L chip, cat FcRn as analyte, pH 6.0; pH 6.0.
Assay [6] has the same target. Kind of assay: SPR (Biacore X100), antibody captured on Protein L chip, cat FcRn as analyte, pH 7.4; pH 7.4.
For assay [7] the target is unchanged. Briefly: SPR (Biacore X100), ratio of KD at pH 6.0 to KD at pH 7.4.
For assay [8], the target named is dog FcRn (complex of dog FCGRT extracellular region with C-terminal His tag and dog β2m) (dog). Kind of assay: SPR (Biacore X100), antibody captured on Protein L chip, dog FcRn as analyte, pH 6.0 (repeats Table 2).
Assay [9] has the same target. Briefly: SPR (Biacore X100), pH 6.0, fold against wild-type Fc.
The target is the same in assay [10]. Briefly: SPR (Biacore X100), ratio of KD values at pH 6.0, reference wild-type Fc.
The target is the same in assay [11]. Kind of assay: SPR (Biacore X100), antibody captured on Protein L chip, dog FcRn as analyte, pH 6.0.
For assay [12] the target is unchanged. Kind of assay: SPR (Biacore X100), antibody captured on Protein L chip, dog FcRn as analyte, pH 6.0; pH 6.0.
The target is the same in assay [13]. Kind of assay: SPR (Biacore X100), antibody captured on Protein L chip, dog FcRn as analyte, pH 7.4; pH 7.4.
The target is the same in assay [14]. Kind of assay: SPR (Biacore X100), ratio of KD at pH 6.0 to KD at pH 7.4.
Assay [15] has the same target. Briefly: SPR (Biacore X100), antibody captured on Protein L chip, dog FcRn as analyte, pH 7.4.

pKd: −log10 of the molar value.

“CFV-3 (omalizumab Fd-Hinge fused to cat Fc region variant S428L/S434A/Q438R/S440E, with omalizumab L chain) (antibody)”: the pKd in assay [1] and in assay [2] was 7.34 in each case. The substance also registered an activity of Fc region variant with FcRn binding activity of wild-type Fc as 1 in assay [3] of 13.7. The KD (variant)/KD (wild-type) at pH 6.0 in assay [4] was 0.07.

With “CFV-4 (omalizumab Fd-Hinge fused to cat Fc region variant S252Y/S254T/T256E, with omalizumab L chain) (antibody)”, the pKd in assay [5] was 7.67; in assay [6], 5.34. The activity of Fc region variant with FcRn binding activity of wild-type Fc as 1 in assay [3] worked out at 29.5. Also, in assay [7], the KD (pH6.0)/KD (pH7.4) came out at 0.005. For the same substance, the KD (variant)/KD (wild-type) at pH 6.0 in assay [4] was found to be 0.03.

Take “CFV-6 (omalizumab Fd-Hinge fused to cat Fc region variant I308P/S434Y, with omalizumab L chain) (antibody)”: the pKd was 8.57 in assay [5] and 5.97 in [6]. This substance came in with an activity of Fc region variant with FcRn binding activity of wild-type Fc as 1 in assay [3] of 259. Also, the KD (pH6.0)/KD (pH7.4) in [7] stood at 0.003. In addition, the KD (variant)/KD (wild-type) at pH 6.0 in assay [4] is 0.

With “CFV-7 (omalizumab Fd-Hinge fused to cat Fc region variant V259I/I308F/S428L, with omalizumab L chain) (antibody)”, the pKd in assay [1] and in assay [2] was 7.29 each time. The activity of Fc region variant with FcRn binding activity of wild-type Fc as 1 in assay [3] is 13.7. Moreover, the KD (variant)/KD (wild-type) at pH 6.0 in [4] came out at 0.07.

Regarding “CFV-8 (omalizumab Fd-Hinge fused to cat Fc region variant S252T/S254T/T256E/H433L/S434F, with omalizumab L chain) (antibody)”, the pKd was 7.41 in assay [5] and 5.19 in assay [6]. The substance also registered an activity of Fc region variant with FcRn binding activity of wild-type Fc as 1 in assay [3] of 17.8. The KD (pH6.0)/KD (pH7.4) in [7] came to 0.006. Besides, in [4], the KD (variant)/KD (wild-type) at pH 6.0 was determined as 0.06.

Consider “DFV-1 (omalizumab Fd-Hinge fused to dog Fc region variant N434A/Y436T/Q438R/S440E, with omalizumab L chain) (antibody)”, for which the pKd in assay [8] and in [11] was 6.27 throughout. In addition, the activity of Fc region variant with FcRn binding activity of wild-type Fc as 1 in [9] came to 3.7. Besides, the KD (variant)/KD (wild-type) at pH 6.0 in assay [10] is 0.27.

In the case of “DFV-4 (omalizumab Fd-Hinge fused to dog Fc region variant L252Y/A254T/T256E, with omalizumab L chain) (antibody)”, the pKd in assay [12] was 6.96; in assay [13], 4.74. In assay [9], this substance came in with an activity of Fc region variant with FcRn binding activity of wild-type Fc as 1 of 18.2. Also, the KD (pH6.0)/KD (pH7.4) in assay [14] was 0.006. Besides, in [10], the KD (variant)/KD (wild-type) at pH 6.0 is 0.05.

On to “DFV-5 (omalizumab Fd-Hinge fused to dog Fc region variant M428L/N434S, with omalizumab L chain) (antibody)”, for which the pKd is 6.09 in assay [8], 5.64 in assay [15] and 6.09 in [11]. In [9], this substance showed an activity of Fc region variant with FcRn binding activity of wild-type Fc as 1 of 2.2. The KD (pH6.0)/KD (pH7.4) in assay [14] amounted to 0.357. The KD (variant)/KD (wild-type) at pH 6.0 in [10] was 0.46.

Consider “DFV-8 (omalizumab Fd-Hinge fused to dog Fc region variant L252T/A254T/T256E/H433L/N434F, with omalizumab L chain) (antibody)”, for which the pKd in assay [8] was 7.16; in assay [15] it was 5.16; in [11] it was 7.16. The same substance registered an activity of Fc region variant with FcRn binding activity of wild-type Fc as 1 in [9] of 28.8. The KD (pH6.0)/KD (pH7.4) in assay [14] was 0.01. Moreover, in assay [10], the KD (variant)/KD (wild-type) at pH 6.0 was 0.03.

Broadly, the pKd is the Kd on a negative log10 scale, so that one unit is a factor of ten. A higher pKd goes with a small Kd.
